Measured values from patent publication US9725446B2, “7-azaindole derivatives” (MERCK PATENT GmbH, priority 2011, dated 2017).

The chains behind the UniProt entries cited, without tags or fusion partners. Residues count along the entry.
UniProt O15530, 51-556: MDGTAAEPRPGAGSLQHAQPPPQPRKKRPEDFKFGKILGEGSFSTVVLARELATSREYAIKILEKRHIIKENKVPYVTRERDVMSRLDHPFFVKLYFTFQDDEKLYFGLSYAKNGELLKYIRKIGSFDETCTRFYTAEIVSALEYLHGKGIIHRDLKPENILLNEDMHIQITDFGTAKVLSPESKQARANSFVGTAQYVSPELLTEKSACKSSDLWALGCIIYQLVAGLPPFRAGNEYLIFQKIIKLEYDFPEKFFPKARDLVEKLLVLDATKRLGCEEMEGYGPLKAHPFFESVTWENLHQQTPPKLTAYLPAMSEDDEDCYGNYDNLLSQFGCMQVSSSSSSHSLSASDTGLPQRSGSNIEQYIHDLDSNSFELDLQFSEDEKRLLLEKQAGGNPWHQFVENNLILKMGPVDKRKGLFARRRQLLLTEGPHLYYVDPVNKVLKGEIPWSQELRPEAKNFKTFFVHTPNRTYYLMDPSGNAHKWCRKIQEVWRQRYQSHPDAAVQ
UniProt Q14164, whole entry, species assumed: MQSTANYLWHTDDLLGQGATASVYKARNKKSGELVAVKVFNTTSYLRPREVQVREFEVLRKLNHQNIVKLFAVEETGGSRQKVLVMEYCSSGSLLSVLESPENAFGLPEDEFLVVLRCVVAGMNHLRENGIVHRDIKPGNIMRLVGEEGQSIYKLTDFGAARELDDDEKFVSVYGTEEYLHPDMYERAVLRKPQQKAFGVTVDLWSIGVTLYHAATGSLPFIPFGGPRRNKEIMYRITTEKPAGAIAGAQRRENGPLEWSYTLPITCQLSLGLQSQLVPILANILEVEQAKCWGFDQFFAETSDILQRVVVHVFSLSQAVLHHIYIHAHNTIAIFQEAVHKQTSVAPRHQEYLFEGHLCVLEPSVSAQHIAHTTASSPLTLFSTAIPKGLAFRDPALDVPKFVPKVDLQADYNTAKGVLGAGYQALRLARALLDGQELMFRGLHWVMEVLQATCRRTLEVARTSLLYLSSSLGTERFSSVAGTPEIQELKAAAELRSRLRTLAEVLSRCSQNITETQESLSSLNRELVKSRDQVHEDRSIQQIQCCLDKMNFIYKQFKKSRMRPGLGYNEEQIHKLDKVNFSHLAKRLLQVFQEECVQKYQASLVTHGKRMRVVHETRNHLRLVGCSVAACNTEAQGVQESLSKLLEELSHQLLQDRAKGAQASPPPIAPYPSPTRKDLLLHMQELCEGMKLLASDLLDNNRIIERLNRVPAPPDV

Assays:
[1] = molecular target: PDK1 (Homo sapiens (Human), UniProt O15530); assay: Test for the inhibition of PDK1 (flashplate, 33P-ATP); type: biochemical
Protocol: The experimental batches are carried out in a flashplate system with 384 wells/microtitration plate.
In each case, the PDK1 sample His6-PDK1 ([…]1-50)(3.4 nM), the PDK1 substrate biotin-bA-bA-[…] (400 nM), 4 μM ATP (with 0.2 μCi of ^33P-ATP/well) and the test substance in 50 μl of conventional experimental solution per well are incubated at 30° C. for 60 min. The test substances are employed in corresponding concentrations (if desired in a dilution series). The control is carried out without test substance. The reaction is stopped using standard methods and washed. The activity of the kinase is measured via the incorporated radioactivity in top count. In order to determine the non-specific kinase reaction (blank value), the experimental batches are carried out in the presence of 100 nM staurosporine.
The radioactivity (decompositions per minute) of the blank value (no use of test substance in the presence of staurosporine) is subtracted from all other radioactivity values. The controls (kinase activity without test substance) are set equal to 100 percent and all other radioactivity values (after subtracting the blank value) are expressed set in relation thereto (for example in % of the control).

[2] = molecular target: IKKε (Homo sapiens (Human), UniProt Q14164); assay: IKKε kinase test (384-well flashplate); type: biochemical; conditions: read-out: IC50 [IKKepsilon]
Protocol: The kinase assay is performed as 384-well flashplate assay.
1 nM IKKε, 800 nM biotinylated IκBα(19-42) peptide (biotin-C6-C6-[…]) and 10 μM ATP (with 0.3 μCi of ^33P-ATP/well) are incubated in a total volume of 50 μl (10 mM MOPS, 10 mM magnesium acetate, 0.1 mM EGTA, 1 mM dithiothreitol, 0.02% of Brij35, 0.1% of BSA, 0.1% of BioStab, pH 7.5) with or without test substance at 30° C. for 120 min. The reaction is stopped using 25 μl of 200 mM EDTA solution, filtered off with suction after 30 min at room temperature, and the wells are washed 3 times with 100 μl of 0.9% NaCl solution. The non-specific proportion of the kinase reaction (blank) is determined using 3 μM EMD 1126352 (BX-795). Radioactivity is measured in the Topcount. IC50 values are calculated using RS1.

- IC50 [1]: 1 to 10 µM
- IC50 [2]: 1 to 10 µM
Compound: Cn1cc(-c2c[nH]c3ncccc23)c2ccncc21 [Compound A19, 1-methyl-3-(1H-pyrrolo[2,3-b]pyridin-3-yl)-1H-pyrrolo[2,3-c]pyridine]
